According to article PMC10193940 (Proceedings of the National Academy of Sciences of the …, 2023):

How the values were obtained:
[1] = target: GST-RNF20 (recombinant, full-length) (human); test: pull-down
[2] = target: GST-RNF40 (recombinant, full-length) (human); test: pull-down

binding result [1]: binds
binding result [2]: binds
B1: 6xHis-tagged RPA2 (natural protein)
chain: MWNSGFESYGSSSYGGAGGYTQSPGGFGSPAPSQAEKKSRARAQHIVPCTISQLLSATLVDEVFRIGNVEISQVTIVGIIRHAEKAPTNIVYKIDDMTAAPMDVRQWVDTDDTSSENTVVPPETYVKVAGHLRSFQNKKSLVAFKIMPLEDMNEFTTHILEVINAHMVLSKANSQPSAGRAPISNPGMSEAGNFGGNSFMPANGLTVAQNQVLNLIKACPRPEGLNFQDLKNQLKHMSVSSIKQAVDFLSNEGHIYSTVDDDHFKSTDAE
